# Measured Henry's law constant values of organic chemicals

Henry's law constant (air-water partitioning) is log10 of atm·m3/mol, nominally at 25 °C. The databases behind each value are named after "via".

compound | log H (log10 atm·m3/mol) | via
CN(C)C1CSSSC1 | -10.75 | OCHEM
CCOP(=S)(OCC)SCC(=O)NC(C)C | -10.18 | OCHEM
O=C(NCCc1ncc(C(F)(F)F)cc1Cl)c1ccccc1C(F)(F)F | -9.532 | OCHEM
O=C(NC(=O)c1c(F)cccc1F)Nc1ccc(CON=C(c2ccc(Cl)cc2)C2CC2)cc1 | -6.591 | OCHEM
CCC(=NOC/C=C/Cl)C1=C(O)CC(C2CCOCC2)CC1=O (stereo partly drawn) | -10.06 | OCHEM
CC#Cc1cc(C)nc(Nc2ccccc2)n1 | -7.783 | OCHEM
CNC(=O)Oc1cccc2c1OC(C)(C)C2O (stereo not given) | -8.298 | OCHEM
COCCOC(=O)C(C#N)(C(=O)c1ccccc1C(F)(F)F)c1ccc(C(C)(C)C)cc1 (stereo not given) | -6.033 | OCHEM
CCOP(=S)(OCC)Oc1cc(Cl)c(Br)cc1Cl | -4.786 | OCHEM
CCCCCCCC(=O)Cl | -6.05 | eChemPortal
CCOP(=S)(Oc1ccc(C#N)cc1)c1ccccc1 (stereo not given) | -7.154 | OCHEM
O=C(O)C(F)(F)C(F)(F)C(F)(F)C(F)(F)C(F)(F)C(F)(F)F | -5.248 | ICF
CCNc1nc(NC(C)(C)C)nc(SC)n1 | -7.83 | OCHEM
CCOc1ccc(C(C)(C)COCc2cccc(Oc3ccccc3)c2)cc1 | -6.872 | OCHEM
CC1(C)[C@H](C(=O)O[C@H](C#N)c2cccc(Oc3ccccc3)c2)[C@@H]1/C=C\C(=O)OC(C(F)(F)F)C(F)(F)F | -6.75 | OCHEM
COCCN(C(=O)CCl)c1c(C)cccc1C | -8.775 | OCHEM
OC(c1ccc(F)cc1)(c1cncnc1)c1ccccc1Cl (stereo not given) | -9.491 | OCHEM
CCOc1ccccc1OS(=O)(=O)NC(=O)Nc1nc(OC)cc(OC)n1 | -7.718 | OCHEM
C#CCOC(=O)/C=C(C)/C=C/CC(C)CCCC(C)C (stereo partly drawn) | -4.47 | OCHEM
CCOP(=S)(OCC)ON=C(C#N)c1ccccc1 | -5.385 | OCHEM
O=S(=O)(Oc1ccc(Cl)cc1)c1ccc(Cl)cc1 | -6.786 | OCHEM
S=C1NCCN1 | -6.395 | eChemPortal
CN(C(=O)COc1nc2ccccc2s1)c1ccccc1 | -9.327 | OCHEM
C=CC1(C)OC(=O)N(c2cc(Cl)cc(Cl)c2)C1=O (stereo not given) | -7.875 | OCHEM
N=C(Nc1ccccc1)Nc1ccccc1 | -12.32 | eChemPortal
CCON=C(CC)C1=C(O)CC(c2c(C)cc(C)cc2C)CC1=O (stereo not given) | -9.705 | OCHEM
CNC1=C(c2cccc(C(F)(F)F)c2)C(=O)C(c2ccccc2)O1 (stereo not given) | -9.892 | OCHEM
CCCN(CCC)C(=O)SCc1ccccc1 | -6.824 | OCHEM
CCOP(=S)(OCC)Oc1cc(-c2ccccc2)on1 | -6.665 | OCHEM
CCN(C(=O)SCc1ccccc1)C(C)C(C)C (stereo not given) | -5.268 | OCHEM
COc1nc(C)nc(NC(=O)NS(=O)(=O)c2ccccc2CCC(F)(F)F)n1 | -8.529 | OCHEM
CC(C)OC(=O)c1cc(-c2nn(C)c(C(F)(F)F)c2Br)c(F)cc1Cl | -6.109 | OCHEM
CCCCSP(SCCCC)SCCCC | -4.644 | OCHEM
CCCN(CC)CC1COC2(CCC(C(C)(C)C)CC2)O1 (stereo not given) | -7.426 | OCHEM
O=C(NC(=O)c1c(F)cccc1F)Nc1ccc(Oc2ccc(C(F)(F)F)cc2Cl)cc1F | -10.58 | OCHEM
CC(C)Oc1cccc(NC(=O)c2ccccc2C(F)(F)F)c1 | -9.788 | OCHEM
CCOP(=S)(Oc1cnc(C(C)(C)C)nc1)OC(C)C (stereo not given) | -5.545 | OCHEM
CCC1(CC2(c3cccc(Cl)c3)CO2)C(=O)c2ccccc2C1=O (stereo not given) | -9.258 | OCHEM
O=C1c2ccccc2C(=O)C1C(=O)C(c1ccccc1)c1ccccc1 | -9.815 | OCHEM
CCCSP(=S)(OCC)Oc1ccc(Cl)cc1Cl (stereo not given) | -4.521 | OCHEM
C[Si](Cn1cncn1)(c1ccc(F)cc1)c1ccc(F)cc1 | -8.574 | OCHEM

The first 3 entries again:

| compound | log H (log10 atm·m3/mol) | via |
|---|---|---|
| CN(C)C1CSSSC1 | -10.75 | OCHEM |
| CCOP(=S)(OCC)SCC(=O)NC(C)C | -10.18 | OCHEM |
| O=C(NCCc1ncc(C(F)(F)F)cc1Cl)c1ccccc1C(F)(F)F | -9.532 | OCHEM |

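The OPERA project collected these measurements from public sources as training and test data for property models. One number stands for a compound and property, with no spread given. How each value was measured is not recorded, so precision varies. The measured form (salt, isomer or mixture) is not always the one drawn. Some entries may be limits or estimates that an upstream database listed as plain numbers.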

Source: data files of OPERA 2.9 (Mansouri et al.), github.com/kmansouri/OPERA.